Experimental data published in patent publication US9884048B2, “ERK inhibitors” (Merck Sharp & Dohme Corp., priority 2014, dated 2018).

By UniProt entry, the sequences of proteins in these tests, tags left out.
UniProt P28482, whole entry: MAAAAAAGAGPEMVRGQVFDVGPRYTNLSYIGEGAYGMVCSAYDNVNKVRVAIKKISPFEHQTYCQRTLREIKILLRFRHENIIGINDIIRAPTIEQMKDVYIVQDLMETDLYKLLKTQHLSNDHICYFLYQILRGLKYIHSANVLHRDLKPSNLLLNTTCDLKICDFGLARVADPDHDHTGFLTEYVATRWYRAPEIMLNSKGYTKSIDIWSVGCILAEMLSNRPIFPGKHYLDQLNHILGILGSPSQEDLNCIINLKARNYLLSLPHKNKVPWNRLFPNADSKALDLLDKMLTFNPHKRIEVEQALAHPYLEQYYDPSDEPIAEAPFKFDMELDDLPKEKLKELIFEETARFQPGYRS

Molecular target: phosphorylated active hERK2 enzyme (Homo sapiens (Human), UniProt P28482)
Conditions: ERK2 IC50, IMAP-FP assay; 0.5 nM hERK2, 30 μM ATP; 10 point titration, 3 μM starting concentration

IC50: 205 nM
SMILES: Cc1cc(-n2ncc3cc(NC(=O)N[C@H]4CCC[C@@H]4OCCCc4ccccc4)ncc32)ccn1 (racemic) [Example 162, Racemic trans 1-[1-(2-methylpyridin-4-yl)-1H-pyrazolo[3,4-c]pyridin-5-yl]-3-[(1S,2S)and (1R,2R)-2-(3-phenylpropoxy)cyclopentyl] urea]
